Experimental findings from US20240174645A1, “COMPOUND, PRODUCTION METHOD THEREFOR, COMPLEX, AND SHORT WAVELENGTH INFRARED FLUORESCENT AGENT” (RIKEN, priority 2021, published 2024) are described below.

For this assay, the system named is HER2 overexpression breast cancer cells (KPL-4) tumor. Nature of the assay: Apoptosis (cell death) imaging of breast cancer after Kadcyla. The class given is in vivo, nude mouse. The note with it: 0.1 mL of Kadcyla (2 mg/mL) tail vein. How it is done: 0.1 mL of Kadcyla (2 mg/mL) was injected, through tail vein, into the nude mouse to which HER2 overexpression breast cancer cells (KPL-4) were transplanted. After three days, the shortwave infrared fluorescent agent 12 (complex 8 having a concentration of 0.5 mg/mL) or the shortwave infrared fluorescent agent 13 (complex 9 having a concentration of 0.5 mg/mL) was injected into the tumor part. The next day, shortwave infrared fluorescence imaging of the breast cancer tumor of the cancer-bearing mouse was performed in vivo. The fluorescence images were captured at an excitation wavelength of 905 nm and a fluorescence detection wavelength of 1000 nm or more. The intensity of the excitation light was 20 mW/cm^2, and the exposure times were 5 seconds (shortwave infrared fluorescent agent 12) and 10 seconds (shortwave infrared fluorescent agent 13). Photographs representing in vivo bright-field images and in vivo shortwave infrared fluorescence images, with the shortwave infrared fluorescent agent 12 and the shortwave infrared fluorescent agent 13, of the breast cancer tumors in the nude mouse into which Kadcyla was injected (left) and the nude mouse into which Kadcyla was not injected (right) are shown in FIG. 18.
0.1 mL of Kadcyla (2 mg/mL) was injected, through tail vein, into the nude mouse to which HER2 overexpression breast cancer cells (KPL-4) were transplanted. […] After 3 days, 5 days, and 11 days, shortwave infrared fluorescence imaging of the breast cancer tumor of the cancer-bearing mouse was performed in vivo. The fluorescence images were captured at an excitation wavelength of 905 nm and a fluorescence detection wavelength of 1000 nm or more. […] Photographs representing in vivo bright-field images and in vivo shortwave infrared fluorescence images, after specific periods of time elapsed, of the breast cancer tumor in the nude mouse with the shortwave infrared fluorescent agent 13, into which Kadcyla was injected, are shown in FIG. 19.

Where [1] appears, read: agent 13 imaging after 3 days, 5 days, and 11 days.

On to “Kadcyla: anti-HER2 antibody Tubulin polymerization inhibitor complex, an antibody-drug complex (ADC)”, for which, where the note is “agent 12 or 13 into tumor after three days, imaged the next day”, the “apoptosis (cell death) of tumor cells” value is “apoptosis (cell death) of the tumor cells was induced”. Under setting [1], the “apoptosis (cell death) of tumor cells, over time” value is “induced apoptosis (cell death) of tumor cells” and the “size of the tumor” value was “caused the size of the tumor to be small”.
